The values below come from ChEMBL document CHEMBL1145929, “Syntheses and binding studies of new [(aryl)(aryloxy)methyl]piperidine derivatives and related compounds as potential antidepressant drugs with high affinity for serotonin (5-HT) and norepinephrine (NE) transporters” (J Med Chem, 2003).

Chains of the proteins cited; added tags and fusions are not shown.
UniProt Q9WTR4, whole entry: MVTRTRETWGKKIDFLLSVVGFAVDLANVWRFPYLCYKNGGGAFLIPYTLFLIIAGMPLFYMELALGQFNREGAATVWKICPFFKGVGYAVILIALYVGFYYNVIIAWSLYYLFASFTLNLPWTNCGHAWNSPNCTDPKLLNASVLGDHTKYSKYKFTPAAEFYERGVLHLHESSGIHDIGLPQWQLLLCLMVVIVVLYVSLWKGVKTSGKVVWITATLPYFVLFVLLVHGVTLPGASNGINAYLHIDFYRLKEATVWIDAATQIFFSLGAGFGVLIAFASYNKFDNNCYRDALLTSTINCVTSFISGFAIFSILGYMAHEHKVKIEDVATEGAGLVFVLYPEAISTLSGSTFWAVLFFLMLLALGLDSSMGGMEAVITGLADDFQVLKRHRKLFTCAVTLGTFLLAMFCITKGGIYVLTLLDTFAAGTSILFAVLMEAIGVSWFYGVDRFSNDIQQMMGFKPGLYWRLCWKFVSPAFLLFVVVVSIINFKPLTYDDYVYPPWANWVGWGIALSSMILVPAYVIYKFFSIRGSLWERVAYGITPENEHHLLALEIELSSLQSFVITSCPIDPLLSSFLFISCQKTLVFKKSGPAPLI
UniProt P14842, whole entry: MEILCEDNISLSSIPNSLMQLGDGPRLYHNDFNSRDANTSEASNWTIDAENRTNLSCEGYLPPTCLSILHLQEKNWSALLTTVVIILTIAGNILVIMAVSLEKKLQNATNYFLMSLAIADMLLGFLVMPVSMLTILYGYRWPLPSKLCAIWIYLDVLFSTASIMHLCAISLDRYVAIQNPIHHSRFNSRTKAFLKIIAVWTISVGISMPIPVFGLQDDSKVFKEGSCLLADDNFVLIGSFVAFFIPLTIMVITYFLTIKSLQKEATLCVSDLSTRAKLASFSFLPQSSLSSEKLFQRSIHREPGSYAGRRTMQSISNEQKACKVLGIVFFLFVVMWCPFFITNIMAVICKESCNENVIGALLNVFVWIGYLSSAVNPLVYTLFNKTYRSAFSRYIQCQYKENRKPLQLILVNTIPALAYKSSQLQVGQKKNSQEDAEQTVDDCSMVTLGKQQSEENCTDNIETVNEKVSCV
UniProt P31652, whole entry: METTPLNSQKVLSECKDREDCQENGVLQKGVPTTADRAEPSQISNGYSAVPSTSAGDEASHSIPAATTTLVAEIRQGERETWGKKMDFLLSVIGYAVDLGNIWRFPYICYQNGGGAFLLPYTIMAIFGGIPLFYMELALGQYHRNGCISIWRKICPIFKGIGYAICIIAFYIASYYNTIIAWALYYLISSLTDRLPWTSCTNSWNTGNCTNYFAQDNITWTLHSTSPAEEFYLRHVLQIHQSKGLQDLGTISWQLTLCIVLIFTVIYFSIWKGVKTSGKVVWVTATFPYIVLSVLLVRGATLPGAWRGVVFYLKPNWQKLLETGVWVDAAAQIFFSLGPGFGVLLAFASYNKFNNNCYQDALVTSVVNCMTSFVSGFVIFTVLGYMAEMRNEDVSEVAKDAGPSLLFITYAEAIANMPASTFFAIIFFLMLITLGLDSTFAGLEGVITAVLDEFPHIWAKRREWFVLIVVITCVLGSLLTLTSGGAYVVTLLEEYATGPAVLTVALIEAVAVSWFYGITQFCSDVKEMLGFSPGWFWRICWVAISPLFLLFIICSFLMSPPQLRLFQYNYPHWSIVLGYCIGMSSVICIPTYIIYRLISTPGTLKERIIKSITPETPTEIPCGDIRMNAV
UniProt P23977, whole entry: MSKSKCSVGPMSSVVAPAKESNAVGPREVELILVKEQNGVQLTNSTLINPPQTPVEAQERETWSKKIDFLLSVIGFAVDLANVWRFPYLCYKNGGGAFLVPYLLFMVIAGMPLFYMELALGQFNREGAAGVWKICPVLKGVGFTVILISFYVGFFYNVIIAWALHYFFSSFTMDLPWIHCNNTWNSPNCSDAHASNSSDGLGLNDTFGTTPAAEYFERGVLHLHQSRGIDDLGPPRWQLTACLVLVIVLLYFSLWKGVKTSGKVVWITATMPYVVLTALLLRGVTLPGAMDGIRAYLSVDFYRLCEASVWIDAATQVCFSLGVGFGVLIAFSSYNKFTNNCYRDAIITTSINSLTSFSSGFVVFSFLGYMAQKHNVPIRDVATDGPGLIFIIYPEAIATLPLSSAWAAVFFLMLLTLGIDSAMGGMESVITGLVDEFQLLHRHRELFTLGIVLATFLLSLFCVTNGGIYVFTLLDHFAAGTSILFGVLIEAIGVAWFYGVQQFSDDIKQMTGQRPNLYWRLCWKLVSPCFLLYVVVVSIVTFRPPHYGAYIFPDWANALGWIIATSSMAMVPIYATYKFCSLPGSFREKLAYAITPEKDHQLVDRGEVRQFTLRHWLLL

For assay [1], the target named is Norepinephrine transporter (Rattus norvegicus, UniProt Q9WTR4). Put plainly: Binding affinity against norepinephrine transporter (NET) by displacement of [3H]nisoxetine in male wistar rats. A general note: Loss of bound radioactivity is the signal in a displacement assay; it reports binding, not function.
Assay [2] deals with 5-hydroxytryptamine receptor 2A (Rattus norvegicus, UniProt P14842). Put plainly: Binding affinity against 5-hydroxytryptamine 2A receptor by displacement of [3H]ketanserin from rat prefrontal cerebral cortex mambranes. In kind it is tissue-based, Frontal cortex.
For assay [3], the target named is Sodium-dependent serotonin transporter (Rattus norvegicus, UniProt P31652). Put plainly: Binding affinity to the serotonin transporter (SERT) measured by displacement of [3H]paroxetine in male wistar rats.
Assay [4] concerns the target Sodium-dependent dopamine transporter (Rattus norvegicus, UniProt P23977). Kind of assay: Binding affinity against dopamine transporter (DAT) by displacement of [3H]WIN-35428 in male wistar rats.

Each structure is given as a SMILES string.

The IC50 is the concentration needed to halve the response being measured. The low end stands for inhibition by little substance, the high end for a need for much substance. Take `Fc1ccc(OC(c2ccccc2)C2CCNCC2)cc1` (single isomer, unassigned; (-)): the IC50 in assay [1] was above 1 µM.
The term Ki denotes the dissociation constant of the complex between target and ligand, obtained from inhibition or displacement. High values mean a looser hold on the target, low ones a stronger hold on the target. In the case of `CN1CCN2c3ncccc3Cc3ccccc3C2C1` (stereo not given) [MIRTAZAPINE], the inhibition constant Ki in assay [2] was found to be 0.0148 µM.
On to `CNCCC(Oc1ccccc1OC)c1ccccc1` (stereo not given) [NISOXETINE], for which, in assay [1], affinity was put at a Ki of 0.0099 µM.
In the case of `Fc1ccc([C@@H]2CCNC[C@H]2COc2ccc3c(c2)OCO3)cc1` [PAROXETINE], the Ki in assay [3] was 0.0007 µM.
`COc1ccc(C(CN(C)C)C2(O)CCCCC2)cc1` (stereo not given) [VENLAFAXINE] returned an IC50 in assay [4] above 1 µM.
